Laboratory results from patent US7445920B2, “Member of the lysyl oxidase gene family” (Wyeth, priority 2000, dated 2008).

Sequences of proteins named here, by UniProt entry; tags and fusion partners are left off.
UniProt Q92731, whole entry: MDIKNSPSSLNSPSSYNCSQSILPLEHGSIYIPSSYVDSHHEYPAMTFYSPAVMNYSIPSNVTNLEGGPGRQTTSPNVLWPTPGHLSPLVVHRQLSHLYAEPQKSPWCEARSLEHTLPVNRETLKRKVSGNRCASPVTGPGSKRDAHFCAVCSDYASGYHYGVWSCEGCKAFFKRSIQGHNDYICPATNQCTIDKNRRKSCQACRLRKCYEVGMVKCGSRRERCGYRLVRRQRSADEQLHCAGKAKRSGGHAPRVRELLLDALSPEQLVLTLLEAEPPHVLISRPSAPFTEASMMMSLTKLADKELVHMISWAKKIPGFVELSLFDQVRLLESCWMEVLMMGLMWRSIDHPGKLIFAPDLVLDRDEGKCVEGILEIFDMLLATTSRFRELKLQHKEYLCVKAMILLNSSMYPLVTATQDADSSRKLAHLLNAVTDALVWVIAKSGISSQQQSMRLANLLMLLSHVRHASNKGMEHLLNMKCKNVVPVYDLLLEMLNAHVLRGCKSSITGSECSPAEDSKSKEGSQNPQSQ

Columns and labels:
ERβ [1] = target: T1, ERβ (Homo sapiens, UniProt Q92731); assay: EER-7 mRNA expression (Northern blot) in HUVEC infected with adenovirus expressing human ERβ; assay type: cell-based; parameters: replication-defective adenovirus expressing human full length wild-type ERα (Ad5Eα) or ERβ (Ad5ERβ); expressed in transfected cells; host or cells: HUVEC infected with replication-defective adenovirus Ad5ERβ, MOI about 300; conditions: HUVEC cells expressing human ERβ, FIG. 3
ERβ [2] = target: T1, ERβ; assay: Differential display of RNA from HUVEC expressing human ERβ (Ad5ERβ); conditions: 100 nM 17β-estradiol vs DMSO vehicle; HUVEC with Ad5ERβ; 30 U/ml IL-1β

EER-7 expression through the ERβ receptor (ERβ [1]): stimulated EER-7 expression | Induction of band #7 (EER-7 fragment, approx. 320 bp) in differential display (ERβ [2]): very strong induction
Structure (SMILES): C[C@]12CC[C@@H]3c4ccc(O)cc4CC[C@H]3[C@@H]1CC[C@@H]2O [17β-estradiol]
